Laboratory results reported in patent publication US20160009782A1.

How the values were obtained:
[1] = molecular target: human Leukocyte immunoglobulin-like receptor B2 (LilrB2) expressed in HEK293 cells (human) (UniProt Q8N423); assay: biotinylated Aβ42 on LilrB2-expressing HEK293 cells, fluorescent streptavidin, control cells subtracted
[2] = molecular target: human Leukocyte immunoglobulin-like receptor B2 (LilrB2) expressed in HEK293 cells (human) (UniProt Q8N423); assay: alkaline phosphatase assay on LilrB2-expressing HEK293 cells

## oligomerized synthetic human Aβ1-42 peptide (oligo-Aβ42)
[1]
  Kd: 206 nM
[2]
  Kd: 250 nM
